This note sets out measurements from patent publication US20240400547A1, “2,6-PIPERIDINEDIONE COMPOUND AND APPLICATION THEREOF” (MEDSHINE DISCOVERY INC., priority 2021, published 2024).

Molecules are shown by their SMILES. Where a name gives a salt, the structure may show the parent alone.

The subject of assay [1] is human B-cell lymphoma OCI-LY10 cells. Nature of the assay: In vivo efficacy in SCID mouse xenograft model of human B-cell lymphoma OCI-LY10 cells. The note with it: average, SEM in next grid line. Details: species or system SCID mice. Here is the method:
The study evaluates the antitumor effect of the test compounds using a SID mouse xenograft model of human B-cell lymphoma OCI-LY10 cells.
• 1. Experimental animals: SCID mice, female, 6 to 8 weeks old, weighing 17 to 20 g. Beijing Vital River Laboratory Animal Technology Co., Ltd. • 2. Cell line: The human B-cell lymphoma OCI-LY10 cell line was purchased from Nanjing Cobioer Biosciences Co. Ltd (Cat. No CBP60558).
OCI-LY10 cells were cultured in IMDM medium containing 20% FBS and maintained in a 37° C. incubator with 5% CO2 and saturated humidity. Log phase OCI-LY10 cells were collected, resuspended in IMDM basic medium, and mixed 1:1 with Matrigel. The cell concentration was adjusted to 4×10^7/mL. Under sterile conditions, 0.1 mL of the cell suspension was inoculated subcutaneously into the right flank of SCID mice, with an inoculation concentration of 4×10^6/0.1 mL/mouse.
For the pharmacological experiment, once the tumors reached a certain size, animals with tumors that were either too large, too small, or irregularly shaped were eliminated. Animals with tumor volumes between 167.65 and 231.29 mm^3 were selected. Based on tumor volume, the animals were divided into groups using a random grouping method, with each group consisting of six mice, and the average tumor volume was approximately 201.15 mm^3. […] During the experiment, the body weight and tumor size of the animals were measured twice a week. Clinical symptoms were observed and recorded daily.
The test compounds were administered at doses of 10 mg/kg, 30 mg/kg, and 100 mg/kg, with a solvent composition of 10% DMSO/10% Solutol/80% H2O. The formula for calculating tumor volume (TV) was: 1/2×a×b^2, where a and b were the measured length and width of the tumor, respectively. […] According to the results of tumor measurement, the relative tumor volume (RTV) was calculated, and the calculation formula was RTV=Vt/V0, where V0 was the tumor volume measured at the time of group administration (i.e. Day 0), VT was the tumor volume at a certain measurement, and TRTV and CRTV were taken from the same day's data. […]

Assay [2] concerns human lymphoma SU-DHL-2 cells. As to the kind of experiment: In vivo efficacy in CB17 SCID mouse model with subcutaneous xenograft tumors of human lymphoma SU-DHL-2 cells. Details: species or system CB17 SCID mice. How it is done:
The study evaluates the antitumor effect of the test compounds using a CB17 SCID mouse model with subcutaneous xenograft tumors of SU-DHL-2 human lymphoma cells.
• 1. Experimental animals: CB17 SCID mice, female, 6 to 8 weeks old, weighing 18 to 22 g. Beijing Vital River Laboratory Animal Technology Co., Ltd. • 2. Cell line: human lymphoma SU-DHL-2 cells (Cat. No ATCC-CRL-2956).
Cell culture: Human lymphoma SU-DHL-2 cells (ATCC-CRL-2956) were cultured in suspension in vitro. The culture conditions were RPMI 1640 medium with […] fetal bovine serum, 100 U/mL penicillin and 100 μg/mL streptomycin, and cultured in a 37° C., […] incubator. Routine passaging was performed twice a week. When the cell saturation reached […] and the quantity met the requirements, the cells were collected, counted, and seeded.
Tumor cell seeding and grouping: 0.2 mL (10×10^6 cells) of SU-DHL-2 cells, in a PBS:Matrigel=1:1 mixture, were subcutaneously inoculated into the right dorsal flank of each mouse. […] The day of grouping was recorded as Day 0, and dosing began according to the body weight of the animals.
The pharmacological experiment consisted of a dosing cycle of seven days, with medication administered once daily at a 24-hour interval. […] During the experiment, the body weight and tumor size of the animals were measured twice a week, and clinical symptoms were observed and recorded daily.
The dosing for the test compounds were 10 mg/kg, 30 mg/kg, and 100 mg/kg, with a solvent composition of 10% DMSO/10% Solutol/80% water. The formula for calculating tumor volume (TV) was: 1/2×a×b^2, where a and b were the measured length and width of the tumor, respectively. […] According to the results of tumor measurement, the relative tumor volume (RTV) was calculated, and the calculation formula was RTV=Vt/V0, where V0 was the tumor volume measured at the time of group administration (i.e. Day 0), VT was the tumor volume at a certain measurement, and TRTV and CRTV were taken from the same day's data. […]
On the technique in general: Xenograft models place foreign cells or tissue in a host animal.

As for `O=C1CCC(c2noc3ccc4c(NC(=O)CN5CCN(C[C@H]6CC[C@H](n7cc(NC(=O)c8coc(-c9ccnc(NCC%10CC%10)c9)n8)c(C(F)F)n7)CC6)CC5)cccc4c23)C(=O)N1` (stereo partly drawn) [Hydrochloride of WX014], the “Relative tumor volume (Day 28)” value in assay [1] (10 mg/kg intragastric once a day) came to 3.37; in assay [1] (30 mg/kg intragastric once a day), 1.64; in assay [1] (100 mg/kg intragastric once a day), 0.91. Also, the “Relative tumor volume (on day 21)” value in assay [2] (10 mg/kg intragastric once daily) is listed as 5.79; in assay [2] (30 mg/kg intragastric once daily) it was 5.78; in assay [2] (100 mg/kg intragastric once daily), 4.55.
